As a reminder, the IC50 is the concentration at which inhibition is half-maximal. A high value points to a need for much substance.

Chains of the proteins cited; added tags and fusions are not shown. Residues count along the entry.
UniProt P07949, 29-1114 limits assumed: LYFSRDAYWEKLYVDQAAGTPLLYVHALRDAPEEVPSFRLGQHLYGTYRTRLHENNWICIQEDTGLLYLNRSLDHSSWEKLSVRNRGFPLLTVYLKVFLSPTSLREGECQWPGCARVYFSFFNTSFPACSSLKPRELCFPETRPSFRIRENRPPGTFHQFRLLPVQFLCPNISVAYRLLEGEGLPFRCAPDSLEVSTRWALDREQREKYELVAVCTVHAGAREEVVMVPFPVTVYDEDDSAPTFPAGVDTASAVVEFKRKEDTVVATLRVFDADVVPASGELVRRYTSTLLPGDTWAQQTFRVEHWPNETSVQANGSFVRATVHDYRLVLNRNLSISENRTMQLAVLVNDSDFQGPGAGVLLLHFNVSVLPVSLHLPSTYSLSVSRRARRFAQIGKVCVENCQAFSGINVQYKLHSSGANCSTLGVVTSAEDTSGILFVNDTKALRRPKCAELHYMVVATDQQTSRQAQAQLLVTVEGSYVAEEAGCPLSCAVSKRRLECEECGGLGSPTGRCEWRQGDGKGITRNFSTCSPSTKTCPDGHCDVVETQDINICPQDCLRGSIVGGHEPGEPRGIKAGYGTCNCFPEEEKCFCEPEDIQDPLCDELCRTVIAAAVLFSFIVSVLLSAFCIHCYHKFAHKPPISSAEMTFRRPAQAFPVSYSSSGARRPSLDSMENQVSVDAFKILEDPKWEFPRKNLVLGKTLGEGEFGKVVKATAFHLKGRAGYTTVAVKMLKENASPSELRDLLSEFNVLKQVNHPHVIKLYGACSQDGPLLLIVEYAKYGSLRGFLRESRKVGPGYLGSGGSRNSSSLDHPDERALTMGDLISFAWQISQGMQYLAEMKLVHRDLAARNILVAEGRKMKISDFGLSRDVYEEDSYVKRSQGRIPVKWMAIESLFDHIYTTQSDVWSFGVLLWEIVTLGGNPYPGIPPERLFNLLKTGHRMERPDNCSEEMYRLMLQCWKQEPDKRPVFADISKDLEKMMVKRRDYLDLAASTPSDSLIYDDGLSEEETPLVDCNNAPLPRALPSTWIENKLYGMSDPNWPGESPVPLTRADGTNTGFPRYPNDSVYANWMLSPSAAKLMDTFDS

Data on one compound can be found in US10112942B2, “Substituted pyrazolo[1,5-A]pyridine compounds as RET kinase inhibitors” (Array BioPharma, Inc., priority 2016, dated 2018).

The assay deals with Kif5b-RET fusion protein in HEK-293 cells (Homo sapiens, UniProt P07949). In words: cell-based.

In the case of `CC(C)(O)COc1cc(-c2ccc(N3CC4CC(C3)N4Cc3cnccn3)nc2)c2c(C#N)cnn2c1` [Example 336, 6-(2-hydroxy-2-methylpropoxy)-4-(6-(6-(pyrazin-2-ylmethyl)-3,6-diazabicyclo[3.1.1]heptan-3-yl)pyridin-3-yl)pyrazolo[1,5-a]pyridine-3-carbonitrile], the midpoint of inhibition, the IC50, lay at 0.164 µM.
